15 compounds from US10214520B2, “Substituted azaspiro(4.5)decane derivatives” (priority 2014, dated 2019) can be followed below.

Chains of the proteins cited; added tags and fusions are not shown. Lines headed by an entry give the natural chain unless they say otherwise; changes in a name come on top.
UniProt P35372, whole entry, looked up: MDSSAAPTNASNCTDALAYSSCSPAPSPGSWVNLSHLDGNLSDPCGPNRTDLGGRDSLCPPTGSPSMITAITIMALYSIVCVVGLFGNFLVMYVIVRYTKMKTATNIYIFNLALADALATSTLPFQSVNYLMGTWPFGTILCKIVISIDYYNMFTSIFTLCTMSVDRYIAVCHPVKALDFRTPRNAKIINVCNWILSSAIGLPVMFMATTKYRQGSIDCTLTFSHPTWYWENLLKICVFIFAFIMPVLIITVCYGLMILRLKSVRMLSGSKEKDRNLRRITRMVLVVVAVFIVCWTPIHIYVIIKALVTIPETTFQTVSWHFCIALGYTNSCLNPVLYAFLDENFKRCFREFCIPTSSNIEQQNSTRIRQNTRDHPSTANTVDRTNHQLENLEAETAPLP
UniProt P41146: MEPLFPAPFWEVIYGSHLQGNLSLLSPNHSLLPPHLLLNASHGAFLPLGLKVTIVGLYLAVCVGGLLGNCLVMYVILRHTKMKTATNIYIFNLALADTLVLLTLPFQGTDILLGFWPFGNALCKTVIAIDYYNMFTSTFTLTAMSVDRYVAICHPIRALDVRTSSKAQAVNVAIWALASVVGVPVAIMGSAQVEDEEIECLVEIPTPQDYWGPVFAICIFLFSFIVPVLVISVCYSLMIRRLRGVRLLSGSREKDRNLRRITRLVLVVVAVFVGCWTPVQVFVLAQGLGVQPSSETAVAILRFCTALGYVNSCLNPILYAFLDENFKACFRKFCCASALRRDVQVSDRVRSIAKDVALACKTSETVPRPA

One assay concerns the target human μ opiate receptor (Homo sapiens, UniProt P35372). Put plainly: μ opiate receptor binding assay with [3H]-naloxone, membrane preparation of CHO-K1 cells (WGA-SPA beads). The following applies: for MOP % Inhibition @1 μM / % inhibition (μ) [1 μM]: test concentration 1 μM.
The target of another assay is ORL1 receptor (Homo sapiens, UniProt P41146). The following applies: for ORL1 % Inhibition @ 1 μM / % inhibition (ORL1) [1 μM]: test concentration 1 μM.
The mark [1] stands for this setting: read-out: Ki (μ) mean [μm], mean.
[2] abbreviates: read-out: Ki (ORL1) mean [μm], mean.

Where two headings read alike, the source gives them in different places.

Regarding “Cis-2,2-Dimethyl-3-(8-methylamino-3-oxo-8-pyridin-2-yl-2-azaspiro[4.5]decan-2-yl)-propionamide 2,2,2-trifluoro acetate”, the Ki on human μ opiate receptor (read-out: MOP Ki) was determined as 4650 nM. The “MOP % Inhibition @1 μM” value on human μ opiate receptor is reported as 28%. The “ORL1 % Inhibition @ 1 μM” value at ORL1 receptor stood at 7%.

On to `CN(C)[C@]1(c2ccccc2)CC[C@]2(CC1)CC(=O)N(CC(=O)NCC1CC1)C2`, for which the Ki at human μ opiate receptor (read-out: MOP Ki) amounted to 1.2 nM; at ORL1 receptor (read-out: ORL1 Ki) it was 2 nM. Further, at human μ opiate receptor, the “MOP % Inhibition @1 μM” value is on record as 101%. In addition, on ORL1 receptor, the “ORL1 % Inhibition @ 1 μM” value was determined as 95%.

On to `CN(C)[C@]1(c2ccccc2)CC[C@]2(CC1)CC(=O)N(CCCNC(=O)c1ccncc1)C2`, for which the Ki was determined as 185 nM on human μ opiate receptor (read-out: MOP Ki) and 655 nM at ORL1 receptor (read-out: ORL1 Ki). Further, at human μ opiate receptor, the “MOP % Inhibition @1 μM” value amounted to 80%. Also, on ORL1 receptor, the “ORL1 % Inhibition @ 1 μM” value is recorded as 37%.

Turning to `Cc1ccc(C2(N(C)C)CCC3(CCN(C(=O)/C=C/c4ccccc4)C3)CC2)s1` (stereo not drawn), the Ki worked out at 1.3 nM at human μ opiate receptor (setting [1]) and 4.95 nM on ORL1 receptor (setting [2]). Moreover, at human μ opiate receptor, the “% inhibition (μ) [1 μM]” value was determined as 103%. Further, the “% inhibition (ORL1) [1 μM]” value on ORL1 receptor came to 97%.

Regarding `CN(C)[C@]1(c2ccccc2)CC[C@]2(CC1)CC(=O)N(CC(=O)Nc1cccnc1)C2`, the Ki on human μ opiate receptor (read-out: MOP Ki) was 50 nM; on ORL1 receptor (read-out: ORL1 Ki), 250 nM. Moreover, the “MOP % Inhibition @1 μM” value at human μ opiate receptor was 95%. The “ORL1 % Inhibition @ 1 μM” value at ORL1 receptor is on record as 38%.

With `CN(C)C1(c2cccs2)CCC2(CCN(Cc3ccccc3)C2=O)CC1` (stereo not drawn), the Ki came out at 5.1 nM at human μ opiate receptor (setting [1]) and 915 nM on ORL1 receptor (setting [2]). For the same compound, the “% inhibition (μ) [1 μM]” value on human μ opiate receptor was found to be 95%. The “% inhibition (ORL1) [1 μM]” value on ORL1 receptor was 27%.

For “(E)-1-[8-(5-Chlorothiophen-2-yl)-8-dimethylamino-2-azaspiro[4.5]dec-2-yl]-3-phenylpropenone”, the figures for the inhibition constant (Ki) on human μ opiate receptor (setting [1]) and at ORL1 receptor (setting [2]) were 3.25 nM and 31.5 nM, respectively. In addition, the “% inhibition (μ) [1 μM]” value on human μ opiate receptor worked out at 102%. In addition, the “% inhibition (ORL1) [1 μM]” value at ORL1 receptor came to 83.5%.

Take “Cis-3-[8-Dimethylamino-8-(3-methoxy-propyl)-3-oxo-2-azaspiro[4.5]decan-2-yl]-2,2-dimethyl-propionamide 2,2,2-trifluoro acetate”: the Ki at human μ opiate receptor (read-out: MOP Ki) was determined as 2020 nM. For the same compound, on human μ opiate receptor, the “MOP % Inhibition @1 μM” value amounted to 27%. For the same compound, the “ORL1 % Inhibition @ 1 μM” value at ORL1 receptor was 10%.

`CN(C)C1(c2ccccc2)CCC2(CCN(C(=O)c3ccccc3)C2)CC1` (stereo not drawn): the Ki at human μ opiate receptor (setting [1]) amounted to 39 nM; at ORL1 receptor (setting [2]), 53.5 nM. The “% inhibition (μ) [1 μM]” value at human μ opiate receptor is on record as 88%. Moreover, at ORL1 receptor, the “% inhibition (ORL1) [1 μM]” value stood at 66%.

Turning to `Cc1ccc(C2(N(C)C)CCC3(CCN(c4ccccc4)C3)CC2)s1` (stereo not drawn), the Ki stood at 6.85 nM on human μ opiate receptor (setting [1]) and 18.5 nM on ORL1 receptor (setting [2]). The “% inhibition (μ) [1 μM]” value at human μ opiate receptor turned out to be 89%. Also, the “% inhibition (ORL1) [1 μM]” value on ORL1 receptor came to 63%.

As to `CN[C@]1(c2ccccn2)CC[C@@]2(CC1)CC(=O)N(CCC(C)(C)C(N)=O)C2`, the Ki at human μ opiate receptor (read-out: MOP Ki) was 1160 nM; at ORL1 receptor (read-out: ORL1 Ki), 1500 nM. The “MOP % Inhibition @1 μM” value at human μ opiate receptor came to 47%. Also, the “ORL1 % Inhibition @ 1 μM” value at ORL1 receptor was determined as 20%.

Regarding `Cc1ccc(C2(N(C)C)CCC3(CCN(C(=O)c4ccccn4)C3)CC2)s1` (stereo not drawn), the results for the Ki at human μ opiate receptor (setting [1]) and at ORL1 receptor (setting [2]) were 79 nM and 370 nM, respectively. Moreover, at human μ opiate receptor, the “% inhibition (μ) [1 μM]” value is listed as 80.5%. Besides, the “% inhibition (ORL1) [1 μM]” value at ORL1 receptor worked out at 26%.

`CN(C)C1(c2ccccc2)CCC2(CC1)CC(=O)N(CC(C)(C)C(=O)NC1CCS(=O)(=O)CC1)C2` (stereo not drawn): the Ki was found to be 400 nM at human μ opiate receptor (read-out: MOP Ki) and 1430 nM at ORL1 receptor (read-out: ORL1 Ki). The “MOP % Inhibition @1 μM” value at human μ opiate receptor is recorded as 58%. Further, the “ORL1 % Inhibition @ 1 μM” value at ORL1 receptor turned out to be 26%.

As for “trans-3-(8-Dimethylamino-3-oxo-8-pyridin-2-yl-2-azaspiro[4.5]decan-2-yl)-2,2-dimethyl-propionamide 2,2,2-trifluoro acetate”, the “MOP % Inhibition @1 μM” value at human μ opiate receptor amounted to 2%. At ORL1 receptor, the “ORL1 % Inhibition @ 1 μM” value is −2%.

With `CN(C)C1(c2cccs2)CCC2(CCN(Cc3ccncc3)C2=O)CC1` (stereo not drawn), the “% inhibition (μ) [1 μM]” value on human μ opiate receptor amounted to 49.5%. The “% inhibition (ORL1) [1 μM]” value at ORL1 receptor came to 16%.

As a reminder, the Ki is the dissociation constant of the complex between target and ligand, obtained from inhibition or displacement.
